AlphaSeq binding of Ab-14 heavy chain variants to a spike HR2 peptide

Reference: Engelhart et al. 2022, doi:10.1038/s41597-022-01779-4. File: FLAb, binding data.

Binding partner: SARS-CoV-2 spike HR2 peptide, sequence PDVDLGDISGINAS.

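Variants in AAYL49 differ from the parent at up to three CDR positions; double and triple changes were sampled at random. The scFvs were displayed on barcoded MATa yeast, the peptide on MATalpha yeast. After mating in shaken culture at 30 °C for 16 h, diploids were selected and their barcode pairs sequenced. Read counts were normalised to the haploid input and turned into Kd by a linear fit to BCL2-family pairs of known affinity, for each replicate. The assay was run in three technical replicates.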

Parent scFv Ab-14: VH joined to VL by the linker GGGGSGGGGSGGGGS. Changes lie in the heavy chain CDRs alone.
VH: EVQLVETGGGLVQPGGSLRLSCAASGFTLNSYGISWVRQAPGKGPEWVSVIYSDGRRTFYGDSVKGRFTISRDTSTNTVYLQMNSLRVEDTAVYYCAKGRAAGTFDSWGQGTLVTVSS
VL: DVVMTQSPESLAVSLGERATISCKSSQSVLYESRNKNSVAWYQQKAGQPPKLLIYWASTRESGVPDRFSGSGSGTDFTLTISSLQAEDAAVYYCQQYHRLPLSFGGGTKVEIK

Sequences are complete VH domains. Values are log10 of the apparent Kd in nM; lower means stronger binding. Where no diploid with the target was found in that replicate, the entry reads "n.d.": below detection, most likely a poor binder, though not proof of it. Parent in this assay: reference entry 0.65, copy in this library 4.11 (one replicate of three).

| VH | log10 Kd, replicates | empty controls |
|---|---|---|
| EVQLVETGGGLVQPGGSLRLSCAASGFTLNSYGISWVRQAPGKGPEWVSVIGSDGRRTFYGDSVKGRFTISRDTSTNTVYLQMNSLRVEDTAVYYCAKDRAAGTYDSWGQGTLVTVSS | n.d. / n.d. / n.d. | 0 of 9 |
| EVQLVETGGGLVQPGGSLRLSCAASGITLNSYVISWVRQAPGKGPEWVSVIYSDGRRTFYGDSVKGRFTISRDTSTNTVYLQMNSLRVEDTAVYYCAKGRAAGTFDEWGQGTLVTVSS | 4.28 / 4.32 / n.d. | 6 of 9 (4.40) |
| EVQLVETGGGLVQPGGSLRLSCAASGTTLNSYGIYWVRQAPGKGPEWVSVIYSDYRRTFYGDSVKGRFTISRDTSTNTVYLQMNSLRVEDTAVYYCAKGRAAGTFDSWGQGTLVTVSS | 5.69 / 4.04 / n.d. | 3 of 9 (4.43) |
| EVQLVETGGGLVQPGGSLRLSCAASGKTLNSYTISWVRQAPGKGPEWVSVIYSDGRRTFYGGSVKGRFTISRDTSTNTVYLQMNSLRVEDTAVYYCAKGRAAGTFDSWGQGTLVTVSS | n.d. / n.d. / n.d. | 2 of 9 (4.25) |
| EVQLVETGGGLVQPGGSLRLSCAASGFTDNSYDISWVRQAPGKGPEWVSVIYSDGRRTFYFDSVKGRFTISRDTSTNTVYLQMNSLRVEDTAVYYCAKGRAAGTFDSWGQGTLVTVSS | 2.59 / n.d. / n.d. | 1 of 9 (2.29) |
| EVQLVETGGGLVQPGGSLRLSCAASGFPLNSYGIQWVRQAPGKGPEWVSVIYSDGRRTFYGDSVKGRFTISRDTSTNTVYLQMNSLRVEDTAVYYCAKERAAGTFDSWGQGTLVTVSS | n.d. / 3.01 / n.d. | 0 of 9 |
| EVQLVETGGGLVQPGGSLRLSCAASGFTLNSYGISWVRQAPGKGPEWVSVFQSGGRRTFYGDSVKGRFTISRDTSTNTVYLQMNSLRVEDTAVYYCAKGRAAGTFDSWGQGTLVTVSS | n.d. / n.d. / n.d. | 0 of 9 |
| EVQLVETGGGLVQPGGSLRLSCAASGKTLNSYGISWVRQAPGKGPEWVSVIYSDGRRTFYTDSVKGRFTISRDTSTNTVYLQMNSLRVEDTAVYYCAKGRAAGTFDWWGQGTLVTVSS | 1.62 / 1.75 / 1.76 | 6 of 9 (4.74) |
| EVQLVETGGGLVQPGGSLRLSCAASGFHLRSYGNSWVRQAPGKGPEWVSVIYSDGRRTFYGDSVKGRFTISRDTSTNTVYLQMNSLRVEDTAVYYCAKGRAAGTFDSWGQGTLVTVSS | n.d. / n.d. / n.d. | 0 of 9 |
| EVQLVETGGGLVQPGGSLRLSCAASGFTLNSYGISWVRQAPGKGPEWVSVEYRDGRRTFYGDVVKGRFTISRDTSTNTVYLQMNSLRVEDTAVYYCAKGRAAGTFDSWGQGTLVTVSS | n.d. / n.d. / n.d. | 0 of 9 |
| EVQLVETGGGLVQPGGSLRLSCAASGFTLNSYGISWVRQAPGKGPEWVSVIYSDGRRTFGGDSVKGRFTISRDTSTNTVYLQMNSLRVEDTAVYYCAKGREWGTFDSWGQGTLVTVSS | n.d. / n.d. / n.d. | 0 of 9 |
| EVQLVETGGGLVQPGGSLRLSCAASGFTLNSYFISWVRQAPGKGPEWVSVIYSDGRRNFYQDSVKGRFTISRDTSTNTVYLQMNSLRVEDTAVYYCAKGRAAGTFDSWGQGTLVTVSS | n.d. / n.d. / n.d. | 1 of 9 (2.44) |
| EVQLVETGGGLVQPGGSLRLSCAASGFTDNSYGISWVRQAPGKGPEWVSVIYSPGRRTFYGDSVKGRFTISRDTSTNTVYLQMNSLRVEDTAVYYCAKGRAAGTFDSWGQGTLVTVSS | n.d. / n.d. / n.d. | 1 of 9 (2.74) |
| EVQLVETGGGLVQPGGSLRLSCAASGFTLNSYGISWVRQAPGKGPEWVSVIYSDARRTFYGLSVKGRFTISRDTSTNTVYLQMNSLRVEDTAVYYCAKGRAAGTFDRWGQGTLVTVSS | n.d. / n.d. / n.d. | 0 of 9 |
| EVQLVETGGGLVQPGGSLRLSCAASGFTLNSRGISWVRQAPGKGPEWVSVIYSDGRGHFYGDSVKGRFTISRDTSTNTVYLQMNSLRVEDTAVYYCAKGRAAGTFDSWGQGTLVTVSS | n.d. / n.d. / n.d. | 0 of 9 |
| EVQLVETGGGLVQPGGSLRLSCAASFFTLNSYGISWVRQAPGKGPEWVSVIYSDGRWTFYGDSVKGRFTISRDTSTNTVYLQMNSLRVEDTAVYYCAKGRAAGTFDNWGQGTLVTVSS | n.d. / n.d. / n.d. | 2 of 9 (4.30) |
| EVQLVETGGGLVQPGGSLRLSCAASGFTLNSYPISWVRQAPGKGPEWVSHIYSDGRRTFYGDSVKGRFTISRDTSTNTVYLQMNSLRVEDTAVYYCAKGRACGTFDSWGQGTLVTVSS | n.d. / 4.61 / n.d. | 3 of 9 (4.52) |

The opening 2 entries, copied out:

| VH | log10 Kd, replicates | empty controls |
|---|---|---|
| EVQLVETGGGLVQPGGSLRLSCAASGFTLNSYGISWVRQAPGKGPEWVSVIGSDGRRTFYGDSVKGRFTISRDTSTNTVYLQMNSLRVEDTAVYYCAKDRAAGTYDSWGQGTLVTVSS | n.d. / n.d. / n.d. | 0 of 9 |
| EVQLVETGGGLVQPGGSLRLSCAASGITLNSYVISWVRQAPGKGPEWVSVIYSDGRRTFYGDSVKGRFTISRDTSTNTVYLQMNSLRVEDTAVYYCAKGRAAGTFDEWGQGTLVTVSS | 4.28 / 4.32 / n.d. | 6 of 9 (4.40) |

Empty control strains, which show no peptide, gave a signal in 15% of pairings with library AAYL49; the median was 4.06 and 95% of these signals were weaker than 2.83. No background was subtracted. Also given: how often the same scFv was detected with the empty control strains, with their mean in brackets.